Tests used:
[1] = Solubility of diols in fully demineralized water; assay type: physicochemical
[2] = Solubility of mixture A + diols; assay type: physicochemical; settings: 10g of substance added to 90g of mixture A

With 1,3-propanediol the Solubility [1] was “Unlimited” and the “Solubility of mixture A + diols” value [2] was “no clear solution”.

From patent publication EP3496534B1, “LIQUID CONCENTRATE FOR PRESERVATION” (Ashland Industries Europe GmbH, priority 2016, dated 2018)
